Measurements taken from patent publication US6395267B1, “TNF receptor action modulation” (Yeda Research and Development Co. Ltd., priority 1992, dated 2002).

System: A9 transfectants expressing mutant receptors with deletion of the intracellular amino acids 405 to 426
Test: Cytocidal effect of TNF and of antibodies to hu-p55-TNF-R (neutral red uptake)
Format: cell-based
Conditions: transfectants with deletion 405 to 426; TNF acting via the endogenous murine receptors
Source text: The cDNA of the human p55 TNF-R (Nophar et al., 1990) was digested with the BanII and Nhel restriction enzymes, resulting in removal of large parts of the 5′ and 3′ non-coding regions. Mutants Δ:405-426 and Δ:415-426 (FIG. 3) were generated by oligonucleotide directed mutation of this shortened form of the cDNA, using the “Altered Sites” mutagenesis kit of Promega. Stop codons were introduced after cysteine 404 (mutant Δ:405-426; amino acids in the receptor are numbered according to Loetscher et al., 1990), using the oligonucleotide 5′ CTGCTGGGCTGCTAGCCTGGAGGACAT 3′ (SEQ ID NO:3), and after glycine 414 (mutant Δ:416-426), using the oligonucleotide 5′AAGCCCTTTGCGGCTAGCCCCGCCGCCCT-3′ (SEQ ID NO:4). […]
Cells of the murine A9 line were cultured with Dulbecco's modified Eagle's Medium (DMEM), containing 10% fetal calf serum, 100 units/ml penicillin and 100 μg/ml streptomycin (growth medium). […] Of all transfectants at least three different clones were analysed in the functional assays to check for clone-to-clone variations of their properties.
Cells were seeded into 96 well plates, 24 hr before the assay at a density of 30,000 cells per well. […] After further 11 hours of incubation at 37° C., viability of the cells was assessed in a neutral red uptake assay as described before (Wallach, 1984).

Substance: human TNF: Recombinant human TNF-α produced by Genentech
- response of cells to human TNF: could respond
